Data set [1] can be described thus: Toxicity in human […] by MTS assay.
For data set [2], the target named is Histone deacetylase 4 (Homo sapiens) (UniProt P56524). The data set is described as follows: Inhibition of histidine-tagged HDAC4 wild type catalytic domain purified from Escherichia coli up to 10 uM after 10 mins.

Amino acid sequences for entries named in this document (tags omitted). A change or cut given only in a name is not applied to a line headed by its entry.
UniProt P56524: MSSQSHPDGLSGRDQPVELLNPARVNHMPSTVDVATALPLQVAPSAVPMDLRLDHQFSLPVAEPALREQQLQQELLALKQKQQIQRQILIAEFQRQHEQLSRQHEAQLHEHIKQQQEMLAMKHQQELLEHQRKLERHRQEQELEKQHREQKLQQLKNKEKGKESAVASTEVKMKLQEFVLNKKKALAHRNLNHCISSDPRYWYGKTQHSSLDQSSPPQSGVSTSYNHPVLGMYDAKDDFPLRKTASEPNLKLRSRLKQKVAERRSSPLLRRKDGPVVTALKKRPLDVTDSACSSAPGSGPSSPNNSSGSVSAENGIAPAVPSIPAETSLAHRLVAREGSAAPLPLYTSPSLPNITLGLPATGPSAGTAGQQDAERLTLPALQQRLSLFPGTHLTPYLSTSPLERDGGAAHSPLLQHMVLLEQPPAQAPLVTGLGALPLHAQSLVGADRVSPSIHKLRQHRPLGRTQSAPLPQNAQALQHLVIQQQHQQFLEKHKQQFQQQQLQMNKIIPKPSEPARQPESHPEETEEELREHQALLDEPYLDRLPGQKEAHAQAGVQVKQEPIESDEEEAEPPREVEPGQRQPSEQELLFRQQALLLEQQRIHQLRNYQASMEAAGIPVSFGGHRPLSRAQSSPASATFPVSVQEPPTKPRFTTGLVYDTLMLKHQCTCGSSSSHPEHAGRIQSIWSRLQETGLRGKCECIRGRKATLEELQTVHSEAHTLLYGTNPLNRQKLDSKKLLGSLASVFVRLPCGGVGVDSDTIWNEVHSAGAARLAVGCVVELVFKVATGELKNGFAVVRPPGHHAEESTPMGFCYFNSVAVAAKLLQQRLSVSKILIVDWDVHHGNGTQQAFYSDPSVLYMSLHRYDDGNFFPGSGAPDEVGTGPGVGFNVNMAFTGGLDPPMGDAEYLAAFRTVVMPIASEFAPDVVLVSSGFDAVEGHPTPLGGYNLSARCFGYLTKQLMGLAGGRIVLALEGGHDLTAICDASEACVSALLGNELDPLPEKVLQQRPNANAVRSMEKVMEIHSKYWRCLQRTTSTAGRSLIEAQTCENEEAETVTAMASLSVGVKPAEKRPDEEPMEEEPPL

Our source for the Activity values is ChEMBL document CHEMBL1152285, “Studies of the metabolic stability in cells of 5-(trifluoroacetyl)thiophene-2-carboxamides and identification of more stable class II histone deacetylase (HDAC) inhibitors” (Bioorg Med Chem Lett, 2008).

Calls of active or inactive are those of the source. The calls are words filed in the database; no cut-off is given here.

In the case of `CC(NC(=O)c1ccc(C(=O)C(F)(F)F)s1)c1cccc2ccccc12` (stereo unspecified), the Activity entry in data set [1] is on record as “Non-toxic”. In the case of `O=C(c1ccc(C(=O)C(F)(F)F)s1)N1CCC(c2nnc(-c3ccccc3)o2)CC1`, the Activity result in data set [1] is “Non-toxic”. Take `CC(NC(=O)c1ccc(C(=O)C(F)(F)F)s1)c1ccncc1` (stereo unspecified): the Activity result in data set [1] is “Non-toxic”. In the case of `COc1cccc(N2CCN(C(=O)c3ccc(C(=O)C(F)(F)F)s3)CC2)c1`, the Activity result in data set [1] is listed as “Non-toxic”. In the case of `O=C(c1ccc(C(=O)C(F)(F)F)[nH]1)N1CCc2ccccc21`, the result in data set [2] was inactive. Take `O=C(NCC1CCCCC1)c1ccc(C(=O)C(F)(F)F)cn1`: in data set [2], the result was inactive.
